{"source": "patent US20180200259A1", "about": "(priority 2015, published 2018)", "origin": "cited, not measured here", "test_system": "Alzheimer patients", "conditions": "cited from earlier work", "data": [{"substance": "Bapineuzumab: an antibody to the N-terminus of Aβ", "values": [{"measurement": "fraction of patients with ARIA", "setting": "ApoE4+ homozygotes", "value": "About ⅓"}, {"measurement": "occurrence of ARIA", "setting": "ApoE4+ patients at low dose, and ApoE4− patients at high dose", "value": "about 20%"}]}]}
